# Experimental data taken from paper PMC3533909.
# Biological target: Myc-tagged wild-type hPINK1 (pBOS-3X-myc-hPINK1-WT) (human) (UniProt Q9BXM7)
# Test: co-IP; 293 IL-1RI cells transfected for 42 to 48 hours, with or without 10 ng/ml IL-1β for 15 minutes, with or without co-expressed Myc-PINK1; 1% Nonidet P40 lysis buffer, 4°C
substance,measurement,value
HA-tagged Toll-interacting protein (Tollip) (from UniProt Q9H0E2 1-274) (natural protein; other documents disagree on this pair),"increase of the association upon IL-1β stimulation, against unstimulated cells",60%
